The chains behind the UniProt entries cited, without tags or fusion partners. Where a name states a change or a piece, a line headed by the entry shows the natural chain unless it says otherwise.
UniProt P41144: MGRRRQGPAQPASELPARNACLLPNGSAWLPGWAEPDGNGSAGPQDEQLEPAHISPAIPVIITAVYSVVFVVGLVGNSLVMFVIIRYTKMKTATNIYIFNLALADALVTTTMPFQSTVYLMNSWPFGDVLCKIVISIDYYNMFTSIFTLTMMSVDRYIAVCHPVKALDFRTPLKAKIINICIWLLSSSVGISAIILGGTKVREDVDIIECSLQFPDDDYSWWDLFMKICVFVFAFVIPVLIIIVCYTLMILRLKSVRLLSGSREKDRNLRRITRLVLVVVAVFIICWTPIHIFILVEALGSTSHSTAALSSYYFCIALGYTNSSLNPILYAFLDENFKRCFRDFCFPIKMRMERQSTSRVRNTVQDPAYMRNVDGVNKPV
UniProt P97266, whole entry, looked up: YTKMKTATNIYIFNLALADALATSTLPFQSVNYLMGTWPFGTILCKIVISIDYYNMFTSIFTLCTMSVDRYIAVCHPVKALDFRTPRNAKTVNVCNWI

According to ChEMBL document CHEMBL1125721, “Highly selective kappa opioid analgesics. 4. Synthesis of some conformationally restricted naphthalene derivatives with high receptor affinity and selectivity” (1991):

Assays:
[1] = test system: Rattus norvegicus; assay: Dose required to produce 50% of the maximum possible analgesic effect evaluated through rat paw pressure assay with the compound being administered through intravenous route.
[2] = biological target: T1, Kappa-type opioid receptor (Cavia porcellus, UniProt P41144); assay: Opioid receptor kappa affinity, determined with [3H]etorphine in the presence of excess unlabeled [D-Ala2-MePhe4-Glyol5]-enkephalin
[3] = biological target: T2, Mu-type opioid receptor (Cavia porcellus, UniProt P97266); assay: Compound was evaluated for the opioid receptor mu affinity determined with [3H][D-Ala2-MePhe4-Gly-ol5]-enkephalin (DAGOL) in the presence of excess unlabeled DAGOL to suppress mu binding.
[4] = biological target: T1, Kappa-type opioid receptor; assay: Compound was evaluated for Opioid receptor kappa 1 affinity, determined with [3H]etorphine in the presence of excess unlabeled [D-Ala2-MePhe4-Glyol5]-enkephalin to suppress kappa binding.
[5] = biological target: T2, Mu-type opioid receptor; assay: Compound was evaluated for the Opioid receptor mu 1 affinity determined with [3H][D-Ala2-MePhe4-Gly-ol5]-enkephalin (DAGOL) in the presence of excess unlabeled DAGOL to suppress mu binding.
[6] = biological target: T2, Mu-type opioid receptor; assay: Compound was evaluated for the Opioid receptor mu affinity determined with [3H][D-Ala2-MePhe4-Gly-ol5]-enkephalin (DAGOL) in the presence of excess unlabeled DAGOL to suppress mu binding.

`CN(C(=O)Cc1cccc2sccc12)[C@H]1CCCC[C@@H]1N1CCCC1.Cl` gave an MPE50 [1] of 1.4 mg/kg.
Compound `CC1c2cccc3cccc(c23)C1C(=O)N(C)[C@H]1CCC2(CCCO2)C[C@@H]1N1CCNC1` (stereo not given in full) has a Ki [2] of 1.2 nM and a Ki [3] of 273 nM.
Compound `CC1c2cccc3cccc(c23)C1C(=O)N(C)[C@H]1CCC2(CCCO2)C[C@@H]1N1CCNC1.Cl` (stereo not given in full) has an MPE50 [1] of 0.43 mg/kg.
In the case of `CN(C(=O)Cc1cccc2occc12)[C@H]1CCC2(CCCO2)C[C@@H]1N1CCCC1.Cl` (stereo not given in full), the MPE50 [1] is reported as 0.027 mg/kg.
Work on `CN(C(=O)Cc1cccc2ccccc12)[C@H]1CCC2(CCCO2)C[C@@H]1N1CCCC1` (stereo not given in full) yielded a Ki [4] of 3.35 nM and a Ki [5] of 864 nM.
With `CN(C(=O)Cc1cccc2sccc12)[C@H]1CCCC[C@@H]1N1CCCC1` the Ki [6] was 410 nM.
`CN(C(=O)Cc1cccc2occc12)[C@H]1CCC2(CCCO2)C[C@@H]1N1CCCC1` (stereo not given in full) gave a Ki [4] of 0.83 nM and a Ki [5] of 1260 nM.
